# Laboratory results: US8236792B2, “Substituted pyrrolidine amides as modulators of the histamine H3 receptor” (Janssen Pharmaceutica NV, priority 2008, dated 2012)
# Protein sequences, listed by entry. Tags and fused reporters are not part of them. Lines headed by an entry give the natural chain unless they say otherwise; changes in a name come on top.
# UniProt Q9Y5N1: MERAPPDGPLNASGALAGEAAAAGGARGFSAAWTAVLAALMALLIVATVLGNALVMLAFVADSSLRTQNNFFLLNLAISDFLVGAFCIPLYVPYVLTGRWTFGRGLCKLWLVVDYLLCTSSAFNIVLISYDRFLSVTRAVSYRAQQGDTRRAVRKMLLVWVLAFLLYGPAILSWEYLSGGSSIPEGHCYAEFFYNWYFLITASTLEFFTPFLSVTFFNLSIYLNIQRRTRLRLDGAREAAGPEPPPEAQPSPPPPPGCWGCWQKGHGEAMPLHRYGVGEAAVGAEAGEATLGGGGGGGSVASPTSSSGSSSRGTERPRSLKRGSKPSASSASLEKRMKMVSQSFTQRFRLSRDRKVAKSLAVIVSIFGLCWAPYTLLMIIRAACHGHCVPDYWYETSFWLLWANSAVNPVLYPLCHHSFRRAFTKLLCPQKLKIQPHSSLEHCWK
# UniProt Q9QYN8: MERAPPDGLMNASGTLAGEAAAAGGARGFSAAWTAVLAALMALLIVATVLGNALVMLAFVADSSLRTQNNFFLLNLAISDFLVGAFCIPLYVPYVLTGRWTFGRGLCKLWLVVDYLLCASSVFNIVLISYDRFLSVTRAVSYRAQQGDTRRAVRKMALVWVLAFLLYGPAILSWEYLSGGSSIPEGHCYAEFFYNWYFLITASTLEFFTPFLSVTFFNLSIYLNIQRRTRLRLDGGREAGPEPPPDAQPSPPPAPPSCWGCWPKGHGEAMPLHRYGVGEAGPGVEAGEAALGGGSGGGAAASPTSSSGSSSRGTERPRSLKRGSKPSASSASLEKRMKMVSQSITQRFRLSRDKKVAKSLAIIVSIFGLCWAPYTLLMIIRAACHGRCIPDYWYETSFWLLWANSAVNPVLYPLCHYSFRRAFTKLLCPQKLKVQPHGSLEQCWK
# Assays:
# [1] = molecular target: T1, cloned human H3 receptors (Homo sapiens, UniProt Q9Y5N1); assay: H3 Receptor Binding (Human) Method 1; settings: receptor stably expressed in SK-N-MC cells, free base forms, average of results
# T1 construct: expressed in transfected cells
# rat H3 receptor = molecular target: T2, rat H3 receptor (Rattus norvegicus, UniProt Q9QYN8); assay: Cyclic AMP Accumulation (rat H3 reporter subline); assay type: cell-based
# T2 construct: expressed in transfected cells; host or cells: SK-N-MC sublines with a reporter construct
# human H3 receptor [2] = molecular target: T3, human H3 receptor (Homo sapiens, UniProt Q9Y5N1); assay: Cyclic AMP Accumulation (human H3 reporter subline); assay type: cell-based; set-up: expressed in transfected cells; host or cells: SK-N-MC sublines with a reporter construct
# human H3 receptor [3] = molecular target: T3, human H3 receptor; assay: H3 Receptor Binding (Human) Method 2, [125I]-iodoproxyfan competitive radioligand binding; set-up: expressed in transfected cells
SMILES,Ki [1] [nM],Ki (human H3 receptor [3]) [nM],also measured
"N#Cc1cccc(O[C@@H]2CN[C@@H](C(=O)N3CCCN(C4CCC4)CC3)C2)c1 [Example 70, (2R,4S)-4-(3-Cyano-phenoxy)-2-(4-cyclobutyl-[1,4]diazepane-1-carbonyl)-pyrrolidine]",1,,Kb (rat H3 receptor): 6.92 nM; Kb (human H3 receptor [2]): 0.692 nM
"COc1cccc(O[C@@H]2CN[C@@H](C(=O)N3CCCN(C4CCC4)CC3)C2)c1 [Example 73, (2R,4S)-4-(3-Methoxy-phenoxy)-2-(4-cyclobutyl-[1,4]diazepane-1-carbonyl)-pyrrolidine]",,1140,
"CC(C)O[C@H]1CN[C@H](C(=O)N2CCCN(C3CCC3)CC2)C1 [Example 104, (2S,4R)-2-(4-Cyclobutyl-[1,4]diazepane-1-carbonyl)-4-isopropoxy-pyrrolidine]",58,,
"CN1C[C@@H](Oc2ccc(F)cc2)C[C@H]1C(=O)N1CCCN(C2CCC2)CC1 [Example 106, (2S,4S)-1-Methyl-2-(4-cyclobutyl-[1,4]diazepane-1-carbonyl)-4-(4-fluoro-phenoxy)-pyrrolidine]",71,,
"CN1C[C@@H](Oc2ccc(F)cc2)C[C@@H]1C(=O)N1CCCN(C2CCC2)CC1 [Example 110, (2R,4S)-1-Methyl-2-(4-cyclobutyl-[1,4]diazepane-1-carbonyl)-4-(4-fluoro-phenoxy)-pyrrolidine]",,2,"Human pA2 (human H3 receptor [2]; SK-N-MC subline with reporter construct and human H3 receptor, free base or trifluoroacetate salt, average): 9.13"
